Changes are numbered by the printed parent chain. In names and notes the source's numbering stands.
T1: fluorophore/quencher substrate peptide DABCYL-YGENVTFQGSK-EDANS
T1 chain: YGENVTFQGSK

B1: NIa protease variant C151S (protein)
chain: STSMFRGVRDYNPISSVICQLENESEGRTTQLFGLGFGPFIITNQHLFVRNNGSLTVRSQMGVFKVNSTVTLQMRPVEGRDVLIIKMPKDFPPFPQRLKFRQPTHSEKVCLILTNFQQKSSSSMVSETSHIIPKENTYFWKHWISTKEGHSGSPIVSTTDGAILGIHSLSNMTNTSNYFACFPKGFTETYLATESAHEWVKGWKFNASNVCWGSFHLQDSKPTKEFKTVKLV
B2: NIa protease variant C110S/C181S/C211S (protein)
chain: B1 chain with C110S, S151C, C181S, C211S
B3: NIa protease variant C110S/C151S/C181S/C211S (protein)
chain: B1 chain with C110S, C181S, C211S
B4: NIa protease variant C19V/C110S/C181S/C211S (protein)
chain: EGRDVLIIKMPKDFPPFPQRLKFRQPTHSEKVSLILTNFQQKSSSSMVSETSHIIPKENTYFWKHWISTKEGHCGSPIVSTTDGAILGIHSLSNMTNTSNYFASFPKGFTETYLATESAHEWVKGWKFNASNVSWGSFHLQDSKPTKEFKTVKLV
B5: NIa protease variant C19V/C110S/C151S/C181S/C211S (protein)
chain: B4 chain with C74S

Molecular target: T1, fluorophore/quencher substrate peptide …

| Protein | Km (uM), DTT + [µM] | Relative Kcat/Km, DTT + | Vmax (RFU/min), DTT + [RFU/min] | Km (uM), DTT - (purified and assayed in the absence of reductant) [µM] | Relative Kcat/Km, DTT - (purified and assayed in the absence of reductant) | Vmax (RFU/min), DTT - (purified and assayed in the absence of reductant) [RFU/min] |
| --- | --- | --- | --- | --- | --- | --- |
| B1 | 165 | 4.3 | 3240 | – | – | – |
| B2 | 252 | 45.9 | 51100 | – | – | – |
| B3 | 71.8 | 7.6 | 2350 | – | – | – |
| B4 | 275 | 59.5 | 75200 | 175 | 69.1 | 53800 |
| B5 | 39.6 | 10.8 | 1890 | 43.1 | 7.1 | 1360 |
